The subject of the series is Human epidermal melanocytes (HEM).

In the case of `O=C(O)CO` [GA, glycolic acid], the cytotoxicity result was “no cytotoxicity”.
